Measured values published in patent US8450270B2 (Indiana University Research and Technology Corporation, priority 2008, dated 2013).

Test: Stability of peptide solutions in syringes (RP-HPLC and SEC, UV 280 nm)
Type: physicochemical
Details: up to 6 months, 1 mg/mL solution; FIG. 12

CC(=O)NCC[C@H](NC(=O)[C@H](CO)NC(=O)[C@@H](N)Cc1c[nH]cn1)C(=O)NCC(=O)N[C@H](C(=O)N[C@@H](Cc1ccccc1)C(=O)N[C@H](C(=O)N[C@@H](CO)C(=O)N[C@@H](CC(=O)O)C(=O)N[C@@H](Cc1ccc(O)cc1)C(=O)N[C@@H](CO)C(=O)N[C@@H](CCCCN)C(=O)N[C@@H](Cc1ccc(O)cc1)C(=O)N[C@@H](CC(C)C)C(=O)N[C@@H](CC(=O)O)C(=O)NC(C)(C)C(=O)N[C@@H](CCCNC(=N)N)C(=O)N[C@@H](CCCNC(=N)N)C(=O)N[C@@H](C)C(=O)N[C@@H](C)C(=O)N[C@@H](CC(=O)O)C(=O)N[C@@H](Cc1ccccc1)C(=O)N[C@H](C(=O)N[C@@H](C)C(=O)N[C@@H](Cc1c[nH]c2ccccc12)C(=O)N[C@@H](CC(C)C)C(=O)N[C@@H](CC(C)C)C(=O)N[C@@H](CC(=O)O)C(=O)N[C@@H](CCC(=O)O)C(=O)O)C(C)C)[C@@H](C)O)[C@@H](C)O [SEQ ID NO: 71]
loss in peak area (UV 280 nm): No significant loss in peak area
